Reference: patent US4238491A (priority 1977, dated 1980)

Assay: Excretion into urine after oral administration
Details: rabbit, in vivo

For `COC(=O)[C@H]1[C@H]2C[C@@H]3c4[nH]c5cc(OC)ccc5c4CCN3C[C@H]2C[C@@H](O)[C@@H]1OC` [MR, methylreserpate], the “main route of excretion” value was “discharge into urine”.
